Experimental data taken from paper PMC4089508 (Bioorganic & medicinal chemistry, 2014).

Test system: colchicine site on tubulin
Details: 5 μM compound

COc1ccc(/C=C\c2cc(OC)c(OC)c(OC)c2)cc1O [CA-4, combretastatin A-4]
Inhibition of colchicine binding % inhibition: 99 ± 0.2%
